According to ChEMBL document CHEMBL1926580, “Identification and development of 2,5-disubstituted oxadiazole as potential candidate for treatment of XDR and MDR tuberculosis” (2012):

Assays:
HepG2 = test: Cytotoxicity against human HepG2 cells after 5 days; format: functional
Summary of the method: (§1)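 HepG2 and BHK21 cells were seeded, incubated 24 h at 37 °C, then exposed to twofold serial dilutions of compound. The value is CC50 (50% cytotoxic concentration), from at least two independent assays.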

BHK-21 = test: Cytotoxicity against hamster BHK21 cells after 5 days; format: functional; conditions: Mesocricetus auratus; summary of the method: as §1

Compound | CC50 (HepG2) [µM] | CC50 (BHK-21) [µM]
O=[N+]([O-])c1cccc(Cc2nnc(SCCCl)o2)c1 | 14.7 | 19.7
ClCCSc1nnc(COc2ccc(Cl)cc2Cl)o1 | 4.5 | 3.75
ClCCSc1nnc(Cc2ccc(Cl)cc2Cl)o1 | > 50 | > 50
O=[N+]([O-])c1cccc(OCc2nnc(SCCCl)o2)c1 | 11.3 | 17.7
